Assay results published in patent publication US20260042755A1, “GPR6 INVERSE AGONISTS” (MapLight Therapeutics, Inc., priority 2022, published 2026).
Read-outs that look alike come from different tables or passages of the source.

Protein sequences, listed by entry. Tags and fused reporters are not part of them.
UniProt P46095, whole entry: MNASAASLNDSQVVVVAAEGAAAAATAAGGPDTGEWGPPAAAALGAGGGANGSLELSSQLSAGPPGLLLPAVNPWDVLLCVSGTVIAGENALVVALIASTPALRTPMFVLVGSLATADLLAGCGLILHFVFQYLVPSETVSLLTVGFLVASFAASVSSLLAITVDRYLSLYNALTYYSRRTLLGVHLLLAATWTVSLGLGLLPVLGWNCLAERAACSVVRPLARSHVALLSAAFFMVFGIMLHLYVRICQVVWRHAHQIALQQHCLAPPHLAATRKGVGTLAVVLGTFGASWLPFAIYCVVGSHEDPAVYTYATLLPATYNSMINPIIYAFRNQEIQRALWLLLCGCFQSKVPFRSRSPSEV
UniProt P46089, whole entry: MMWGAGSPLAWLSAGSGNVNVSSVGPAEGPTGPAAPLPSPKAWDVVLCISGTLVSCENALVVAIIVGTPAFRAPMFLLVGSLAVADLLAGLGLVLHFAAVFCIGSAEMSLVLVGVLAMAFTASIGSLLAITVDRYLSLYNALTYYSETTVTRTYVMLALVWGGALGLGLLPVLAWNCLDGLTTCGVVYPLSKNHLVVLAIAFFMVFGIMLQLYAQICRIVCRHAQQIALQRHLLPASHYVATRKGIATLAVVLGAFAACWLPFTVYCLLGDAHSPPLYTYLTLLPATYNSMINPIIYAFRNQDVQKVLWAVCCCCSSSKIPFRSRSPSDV

Legend:
[1] = target: GPR6 (Homo sapiens, UniProt P46095); assay: GPR6 antagonist functional cAMP assay (LANCE Ultra cAMP TR-FRET, CHO cells stably expressing GPR6); conditions: read-out: GPR6 IC50
Description: (§1) Example 56. GPR6 and GPR3 Antagonist Functional cAMP Assay
(§2) CHO cells stably expressing GPR6 or GPR3 receptors were dissociated from cell culture flasks and incubated for 2 h at 37° C. in a 10 cm dish in a humidified incubator. Cells were dissociated, counted to have 1e6 cells/mL (4.5e6 cells needed/384-well plate), washed once in starved media, than in D-PBS and finally suspended in assay buffer (Krebs-Ringer Bicarbonate Buffer with 1800 mg/L glucose, without calcium chloride and sodium bicarbonate (Sigma) in the presence of 0.1% BSA and 150 μM of Ro 20-1724 Phosphodiesterase inhibitor).
(§3) Cells in suspension from above were plated in 384-well white Optiplate (PerkinElmer) at 10,000 cells/well/10 μl, briefly centrifuged prior direct addition of compounds ([…]) in 10 mM DMSO using a Tecan D300e Digital Dispenser, final DMSO in each well was normalized to 0.1%. Cells were incubated in the presence of compounds for 45 min at 37° C. in a humidified incubator.
(§4) To measure cAMP levels, LANCE® Ultra cAMP assay (Perkin Elmer), a homogeneous time-resolved fluorescence resonance energy transfer (TR-FRET) immunoassay was used following manufacturer's recommendations. Plates were shaken for 1 h at room temperature before reading on a Tecan InfiniteF200Pro multi-mode plate reader using standard FRET settings (Excitation 340 nm, Emission at 615 nm). FRET values were reported as readings obtained at 665 nm. Data were normalized to DMSO (0.1%) and reference compounds (100%) and fit to a 4-parameter logistical fit to generate antagonist IC50s.

[2] = target: GPR3 (Homo sapiens, UniProt P46089); assay: GPR3 antagonist functional cAMP assay (LANCE Ultra cAMP TR-FRET, CHO cells stably expressing GPR3); conditions: read-out: GPR3 IC50
Description: as §1, §2, §3, §4

[3] = CHO cells stably expressing GPR6, cAMP assay (Example 24)
[4] = CHO cells stably expressing GPR3, cAMP assay (Example 24)

Compound | IC50 [1, 3] | IC50 [2, 4] | IC50 ([1]; procedure of Example 24) | IC50 ([2]; procedure of Example 24) | also measured
CC(=O)N1CCc2nc(N3CCC(Oc4ccc(F)cc4F)CC3)c(-c3cccc(OC(F)F)n3)nc2C1 | 0.1 to 1 µM | 1 to 30 µM |  |  | 
COCCOc1cc2nc(-c3cnn(CF)c3)c(N3CCN(Cc4ccc(F)cc4F)CC3)nc2cn1 |  |  | 0.1 to 1 µM | 1 to 30 µM | 
COc1cnc(-c2nc3c(nc2N2CCC(Oc4ccc(F)cc4F)CC2)CCN(C(C)=O)C3)cn1 | 0.1 to 1 µM | 1 to 30 µM |  |  | 
CC(C)(O)C(C)(O)c1cc2nc(-c3cnn(C(F)F)c3)c(N3CCN(Cc4cc(F)ccc4F)CC3)nc2cn1 (single isomer, unassigned) |  |  | 0.1 to 1 µM | 1 to 30 µM | 
CC(C)(O)C(O)c1cc2nc(-c3cnn(CF)c3)c(N3CCC(Cc4ccc(F)cc4F)CC3)nc2cn1 (single isomer, unassigned) |  |  | < 0.1 µM | < 0.1 µM | 
CCn1cc(-c2nc3cc(C(O)C(C)(C)O)ncc3nc2N2CCN(Cc3ccc(F)cc3F)CC2)cn1 (single isomer, unassigned) |  |  |  |  | IC50 ([1]; CHO cells stably expressing GPR6, cAMP assay): < 0.1 µM; IC50 ([2]; CHO cells stably expressing GPR3, cAMP assay): 0.1 to 1 µM
